Columns and labels:
Experiment in all cases: MIC broth microdilution
[1] = system: Klebsiella pneumoniae ATCC 10031 (KP2); type: cell-based
Method: Minimum Inhibitory Concentrations (MICs) versus planktonic bacteria are determined by the broth microdilution procedure according to the guidelines of the Clinical and Laboratory Standards Institute (Clinical and Laboratory Standards Institute. Methods for Dilution Antimicrobial Susceptibility Tests for Bacteria That Grow Aerobically; Approved Standard-tenth Edition. CLSI document M07-A10, 2015). The broth dilution method involves a two-fold serial dilution of compounds in 96-well microtitre plates, giving a final concentration range of 0.39-200 μM and a maximum final concentration of 2% DMSO. The bacterial strains tested include Escherichia coli K12 (EC), E. coli NCTC 13441 (UPEC), Staphylococcus aureus ATCC 35556 (SA), Acinetobacter baumannii ATCC 17978 (AB), Pseudomonas aeruginosa ATCC 33359 (PA), Enterobacter cloacae DSM 30054 (Ed), Serratia marcescens SL1344 (Sm), Salmonella typhimurium XNAA5 (St), Klebsiella pneumoniae ATCC 10031 (KP2), K. pneumoniae NCTC 13438 (KP1), K. pneumoniae ATCC 700603 (KP3), Klebsiella pneumoniae ATCC 51504 (KP4), K. pneumoniae H154680676 (KP5), K. pneumoniae H154020667 (KP6), K. pneumoniae H154640784 (KP7), K. pneumoniae H154600588 (KP8), K. pneumoniae H154300688 (KP9), K. pneumoniae H151440671 (KP10). […] The MIC is determined as the lowest concentration of compound that inhibits growth following a 20-24 hour incubation period.

[2] = system: K. pneumoniae ATCC 700603 (KP3); type: cell-based, Klebsiella pneumoniae
Method: (§1) Minimum Inhibitory Concentrations (MICs) versus planktonic bacteria are determined by the broth microdilution procedure according to the guidelines of the Clinical and Laboratory Standards Institute (Clinical and Laboratory Standards Institute. Methods for Dilution Antimicrobial Susceptibility Tests for Bacteria That Grow Aerobically; Approved Standard-tenth Edition. CLSI document M07-A10, 2015). The broth dilution method involves a two-fold serial dilution of compounds in 96-well microtitre plates, giving a final concentration range of 0.39-200 μM and a maximum final concentration of 2% DMSO. The bacterial strains tested include Escherichia coli K12 (EC), E. coli NCTC 13441 (UPEC), Staphylococcus aureus ATCC 35556 (SA), Acinetobacter baumannii ATCC 17978 (AB), Pseudomonas aeruginosa ATCC 33359 (PA), Enterobacter cloacae DSM 30054 (Ed), Serratia marcescens SL1344 (Sm), Salmonella typhimurium XNAA5 (St), Klebsiella pneumoniae ATCC 10031 (KP2), K. pneumoniae NCTC 13438 (KP1), K. pneumoniae ATCC 700603 (KP3), Klebsiella pneumoniae ATCC 51504 (KP4), K. pneumoniae H154680676 (KP5), K. pneumoniae H154020667 (KP6), K. pneumoniae H154640784 (KP7), K. pneumoniae H154600588 (KP8), K. pneumoniae H154300688 (KP9), K. pneumoniae H151440671 (KP10). Strains are grown in cation-adjusted Müller-Hinton broth or on Luria Bertoni agar at 37° C. in an ambient atmosphere. The MIC is determined as the lowest concentration of compound that inhibits growth following a 20-24 hour incubation period.

[3] = system: K. pneumoniae H151440671 (KP10); type: cell-based, Klebsiella pneumoniae
Method: as §1

[4] = system: K. pneumoniae H154020667 (KP6); type: cell-based, Klebsiella pneumoniae
Method: as §1

[5] = system: K. pneumoniae H154300688 (KP9); type: cell-based, Klebsiella pneumoniae
Method: as §1

[6] = system: K. pneumoniae H154600588 (KP8); type: cell-based, Klebsiella pneumoniae
Method: as §1

[7] = system: K. pneumoniae H154640784 (KP7); type: cell-based, Klebsiella pneumoniae
Method: as §1

[8] = system: K. pneumoniae H154680676 (KP5); type: cell-based, Klebsiella pneumoniae
Method: as §1

[9] = system: K. pneumoniae NCTC 13438 (KP1); type: cell-based, Klebsiella pneumoniae
Method: as §1

`NC[C@H]1O[C@H](O[C@H]2[C@H](O)[C@@H](O[C@H]3O[C@H](CO)[C@@H](O)[C@H](N)[C@H]3O)[C@H](N)C[C@@H]2N)[C@H](N)C[C@@H]1O` [TOB] was tested, and the “MIC KP2” value [1] was “B (a MIC of from 1 to 10 is assigned the letter B)”, the “MIC KP3” value [2] was “D (a MIC of over 100 is assigned the letter D)” and the “MIC KP10” value [3] was “B (a MIC of from 1 to 10 is assigned the letter B)”. For the same compound, the “MIC KP6” value [4] was “D (a MIC of over 100 is assigned the letter D)”, the “MIC KP9” value [5] was “D (a MIC of over 100 is assigned the letter D)” and the “MIC KP8” value [6] was “D (a MIC of over 100 is assigned the letter D)”. For the same compound, the “MIC KP7” value [7] was “B (a MIC of from 1 to 10 is assigned the letter B)”, the “MIC KP5” value [8] was “D (a MIC of over 100 is assigned the letter D)” and the “MIC KP1” value [9] was “C (a MIC of from 10 to 100 is assigned the letter C)”.

— patent US11345694B2, “Antibacterial compounds” (DISCUVA LTD., priority 2017, dated 2022)
